Shown are actives, neighbours in structure and some others; about 2.1% of the full set was active somewhere.
A549 viability: counter-screen for Nrf2 inhibitors: cytotoxicity in A549 cells | A549 ARE-Fluc cells, CellTiter-Fluor viability, 18-24 h | Potency, µM (highest dose often 46 µM), inactives show at the highest dose activity change, negative = cytotoxicity, hits mostly inhibitors | actives 0.16% (n = 390,000); note: potency is the fitted concentration of half-maximal effect; % is set by controls: 0 for no effect and ±100 for the full control effect
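Cytotoxicity counterscreen: CellTiter-Fluor fluorescence was measured in A549 ARE_Fluc cells after 18-24 h of compound exposure in a concentration series. The subsequent BugLite luminescent read reports ARE-luciferase activity.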
miR-21 reporter: raises the signal of a miR-21 reporter; Potency, µM (doses to about 38.3 µM), inactives show top-dose reporter change, positive = more light; HeLa miR-21 FLuc reporter, luciferase, 48 h; AID 2288; 340,000 tested, under 10 active; active = well fitted rising curve with a large enough effect; inconclusive = small, poorly fitted or top-dose-only effect; inactive = no such curve, though single readings can be large or run the other way;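 further: % of control where 0% means no effect; miR-21 action dims this reporter so a rising signal means less miR-21 action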
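Luminescence from a firefly luciferase reporter carrying a miR-21 binding site downstream, stably expressed under a CMV promoter in HeLa cells that make miR-21 endogenously, reports miRNA modulation after 48 h compound exposure up to approximately 40uM final.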
Glioma ERSR ind: ER stress response induction in glioma; U87-MG GRP78 promoter luciferase reporter, 16 h; Potency, µM, inactives show top-dose activation, most hits filed as activators; actives 0.02% (n = 420,000); AID 602332; note: potency is the fitted concentration of half-maximal effect; series mostly up to about 76 µM; % of control where 0% means no effect; nearly all actives have a fitted effect of over 35% in size
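Stably transfected U87-MG glioma cells carrying a GRP78-based luciferase sensor; 16 h compound incubation. Luminescence end-point read 10 min after Bright-Glo addition at room temperature.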
Nrf2 block: inhibitors of Nrf2 signaling. AID 504444. actives 2.1% (n = 360,000). A549 ARE-Fluc reporter, luciferase luminescence, 18-24 h. Potency, µM (highest dose often 46 µM), for the others: at the top dose activity change, negative = inhibition, hits mostly inhibitors; note: potency is the fitted concentration of half-maximal effect; % is set by controls: 0 for no effect and ±100 for the full control effect; nearly all actives have a fitted effect of over 60% in size
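Nrf2 activity is the BugLite luminescence, read 15 min after reagent at room temperature, following CellTiter-Fluor cytotoxicity readout (30 min, 37C). Compound titrations were applied for 18-24 h to 5000 A549 ARE_Fluc cells/well in 5% FBS OPTI-MEM.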
TSG101-PTAP inh: blocks PTAP/TSG101 interaction to inhibit HIV-1 budding; Q99816; Fluorescence polarization, FITC-PTAP peptide / Tsg101 binding; Potency, µM (series often up to 115 µM), for the others: top-dose activity change, negative = inhibition, usual class: inhibitors; 340,000 tested, under 10 active; AID 493005; active = well fitted inhibition curve with a large enough effect in the main read-out, with a control signal flat, not every such curve was filed as active; inconclusive = small, poorly fitted or top-dose-only effect, or effect the other way, or a change in a side signal; inactive = no such curve, though single readings can be large or run the other way; note: potency is the fitted concentration of half-maximal effect; % of control where 0% means no effect
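Fluorescence anisotropy tracks displacement of a FITC-tagged PTAP peptide (50 nM) from the Tsg101 binding domain (10 uM), following a 20 min room-temperature incubation at pH 7.5.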
Nrf2 activator: Nrf2 pathway activation; actives 0.31% (n = 410,000); AREc32 ARE-luciferase reporter (MCF7-derived line), luminescence, 24 h; AID 624171; Potency, µM (top dose mostly 46.1 µM), inactives show at the top dose activation, most hits filed as activators; note: potency is the fitted concentration of half-maximal effect; % of control where 0% means no effect; nearly all actives have a fitted effect of over 65% in size
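AREc32 cells carrying an ARE-driven firefly luciferase, 1000 cells/well in OPTI-MEM with 5% FBS, dosed after overnight attachment and incubated 24 hr at 37 deg C. Steady-Glo luminescence read after 30 min at RT.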
The depositor's hits bear a star; ? = inconclusive; / = no result. Unless noted, calls come from the whole dose curve; as a rule, active = well fitted curve in the direction sought with a large enough effect; inconclusive = small, poorly fitted or top-dose-only effect, or another doubt; inactive = no such curve, though single readings can be large; an effect the other way counts as inactive or inconclusive.

Fields: A549 viability	miR-21 reporter	Glioma ERSR ind	Nrf2 block	TSG101-PTAP inh	Nrf2 activator
1. CC(=O)OC1CC(OC2C(O)CC(OC3C(O)CC(OC4CCC5(C)C(CCC6C5CCC5(C)C(C7=CC(=O)OC7)CCC65O)C4)OC3C)OC2C)OC(C)C1OC1OC(CO)C(O)C(O)C1O (stereo not drawn)
  ?	/	-4.7%	0.0366µM*	-1.4%	-0.7%
2. C[C@@H]1O[C@@H](O[C@H]2CC[C@@H](O[C@H]3[C@H](O)C[C@H](c4ccc5c(c4O)C(=O)C4=C(C5=O)[C@@]5(O)C(=O)C[C@](C)(O[C@H]6CC[C@H](O[C@H]7C=CC(=O)[C@H](C)O7)[C@H](C)O6)C[C@@]5(O)C=C4)O[C@@H]3C)O[C@H]2C)C=CC1=O
  /	/	-12.1%	/	/	/
3. Cc1ccc(NC(=O)Nc2cc3c(cc2N2CCCCC2)n(C)c(=O)n3C)cc1Cl
  -19.0%	?	-3.4%	20.6µM*	/	0.0%
4. CC1(O)CCC2C3CCC4=CC(=O)CCC4(C)C3(F)C(O)CC21C (stereo not drawn)
  /	/	-1.5%	/	/	/
5. O=C(CNC(=O)c1cccc(S(=O)(=O)N2CCc3ccccc32)c1)Nc1ccccc1Br
  -6.5%	/	-7.5%	?	-0.2%	-1.5%
6. O=C(Nc1ccc(Br)cc1)c1cccc(S(=O)(=O)N2CCc3ccccc32)c1
  -22.4%	?	-0.8%	16.4µM*	/	-0.9%
7. C[C@@H]1[C@H](O)[C@@H](C)C=CC=CCCC=CC=CC=CC=C[C@H](O[C@H]2O[C@@H](C)[C@H](O)[C@@H](N)[C@@H]2O)CC2O[C@](O)(C[C@@H](O)[C@H](O)CC[C@@H](O)C[C@@H](O)C[C@@H](O)CC(=O)O[C@H]1C)C[C@H](O)[C@H]2C(=O)O
  /	/	-4.2%	/	/	/
8. CCc1ccccc1NC(=O)C1CCCN(c2ncnc3onc(C)c23)C1 (stereo not drawn)
  -12.9%	7.7%	-1.8%	?	/	0.6%
9. COC(=O)C1=C(c2ccc(F)cc2OCc2ccccc2)C[C@@H]2CC[C@H]1N2C(=O)NCc1ccc(OC)cc1
  -17.5%	/	-5.1%	?	-0.5%	0.4%
10. COC(=O)C1=C(c2ccc(F)cc2OCc2ccccc2)C[C@@H]2CC[C@H]1N2C(=O)NCCOc1ccc(OC)cc1
  -11.9%	/	-5.0%	23.1µM*	-0.2%	-1.6%
11. COC(=O)C1=C(c2ccc(F)cc2OCc2ccccc2)C[C@@H]2CC[C@H]1N2C(=O)NCCOc1ccccc1
  -18.6%	/	-3.6%	?	-4.1%	-1.1%
12. COC(=O)C1=C(c2ccc(F)cc2OCc2ccccc2)C[C@@H]2CC[C@H]1N2C(=O)NCc1ccc(Br)cc1
  -22.1%	/	-2.2%	14.6µM*	-2.6%	0.0%
13. COC(=O)C1=C(c2ccc(F)cc2OCc2ccccc2)C[C@@H]2CC[C@H]1N2C(=O)NCc1ccccc1Cl
  -15.5%	/	-3.7%	5.17µM*	-4.6%	0.1%
14. COC(=O)C1=C(c2ccc(F)cc2OCc2ccccc2)C[C@@H]2CC[C@H]1N2C(=O)NCCOc1ccccc1Cl
  ?	/	-5.8%	?	-2.9%	-0.7%
15. COC(=O)C1=C(c2ccc(F)cc2OCc2ccccc2)C[C@@H]2CC[C@H]1N2C(=O)NCCc1ccc(F)cc1
  ?	/	-2.9%	18.4µM*	-1.1%	-1.5%

Looked up above:
Entry for entry 11 in Glioma ERSR ind: -3.6%
Entry for entry 12 in TSG101-PTAP inh: -2.6%
Entry for entry 7 in Glioma ERSR ind: -4.2%

3 entries from above, arranged by formula weight, lowest first.
Fields: A549 viability	miR-21 reporter	Glioma ERSR ind	Nrf2 block	TSG101-PTAP inh	Nrf2 activator
6. O=C(Nc1ccc(Br)cc1)c1cccc(S(=O)(=O)N2CCc3ccccc32)c1
  -22.4%	?	-0.8%	16.4µM*	/	-0.9%
11. COC(=O)C1=C(c2ccc(F)cc2OCc2ccccc2)C[C@@H]2CC[C@H]1N2C(=O)NCCOc1ccccc1
  -18.6%	/	-3.6%	?	-4.1%	-1.1%
2. C[C@@H]1O[C@@H](O[C@H]2CC[C@@H](O[C@H]3[C@H](O)C[C@H](c4ccc5c(c4O)C(=O)C4=C(C5=O)[C@@]5(O)C(=O)C[C@](C)(O[C@H]6CC[C@H](O[C@H]7C=CC(=O)[C@H](C)O7)[C@H](C)O6)C[C@@]5(O)C=C4)O[C@@H]3C)O[C@H]2C)C=CC1=O
  /	/	-12.1%	/	/	/

Other records follow:
Fields: A549 viability	miR-21 reporter	Glioma ERSR ind	Nrf2 block	TSG101-PTAP inh	Nrf2 activator
16. ClCCN(CCCl)c1ccc(/C=C/c2ccnc3ccccc23)cc1
  /	/	2.7%	/	/	/
17. NC(=O)c1cc(N2CC2)c([N+](=O)[O-])cc1[N+](=O)[O-]
  ?	/	-2.5%	13µM*	1.0%	1.3%
18. O=C(c1ccc2c(c1)N(Cc1c(F)cccc1Cl)C(=O)c1ccccc1S2)N1CCC2(CC1)OCCO2
  ?	-2.8%	1.6%	20.6µM*	/	-0.3%
19. C=CCC1(O)CCC2C3CCC4=CC(=O)CCC4=C3C=CC21C (stereo not drawn)
  /	/	-4.1%	/	/	/
20. COc1ccc(CN2CCc3nc(N4CCN(c5ccc(F)cc5)CC4)ncc3C2)c(OC)c1OC
  -28.4%	?	-4.7%	/	/	0.3%
21. Cc1nccc2c1[nH]c1ccc(Br)cc12
  -3.1%	/	-2.5%	-7.1%	0.6%	4.6%
22. COc1ccc2c(c1)[nH]c1c(C)nccc12
  -7.4%	/	-6.2%	23.1µM*	-8.5%	0.1%
23. Cc1ccnc(SCc2nc3ccccc3s2)n1
  -0.4%	-70.8%	5.5%	/	-3.5%	12.6µM*
24. C=CCC1=C(C)C(OC(=O)C2C(C=C(C)C)C2(C)C)CC1=O (stereo not drawn)
  /	/	-2.6%	/	/	/
25. O=C(Nc1sc2c(c1C(=O)Nc1ccc(Cl)cc1)CCCC2)c1cccs1
  -0.8%	-0.6%	-1.2%	?	/	-0.9%
26. Cc1ccccc1C(=O)Nc1sc2c(c1C(=O)O)CCC(C(C)(C)C)C2 (stereo not drawn)
  -19.0%	21.7%	-2.9%	3.66µM*	/	-3.1%
27. O=C1/C(=C\c2ccccc2)C[C@@]2(O)[C@H]3Cc4ccc(O)c5c4[C@@]2(CCN3CC2CC2)[C@H]1O5
  /	/	-11.7%	/	/	/
28. CN(C)c1ccc(/C=C/c2cc[n+](C)c3ccccc23)cc1
  16.4µM*	?	-10.4%	8.2µM*	-0.3%	-1.2%
29. Oc1c(Cl)c(Cl)c(Cl)c(Cl)c1Cl
  -1.4%	/	-0.4%	23.1µM*	-17.0%	0.8%
30. CC(C)(C)c1cc([N+](=O)[O-])cc(C(C)(C)C)c1O
  ?	28.1%	-0.8%	18.4µM*	-3.0%	0.0%
31. Cc1c(N)nc([C@@H](CC(N)=O)NC[C@H](N)C(N)=O)nc1C(=O)N[C@H](C(=O)N[C@H](C)[C@H](O)[C@H](C)C(=O)N[C@@H](C(=O)NCCc1nc(-c2nc(C(=O)NCCC[S+](C)C)cs2)cs1)[C@H](C)O)[C@H](O[C@@H]1O[C@@H](CO)[C@@H](O)[C@H](O)[C@@H]1O[C@H]1O[C@H](CO)[C@H](O)[C@H](OC(N)=O)[C@@H]1O)c1cnc[nH]1
  /	/	-2.4%	/	/	/
32. C[N+](C)(C)CC1CCCC(C[N+](C)(C)C)C1=O (stereo not drawn)
  -3.7%	/	-13.9%	0.5%	-0.4%	11.2µM*
33. C[N+](C)(C)CC1CCCc2ccccc2C1=O (stereo not drawn)
  -3.4%	/	-13.0%	9.6%	-0.5%	20.5%
34. c1cc[n+]2c(c1)-c1cccc[n+]1CC2
  /	/	-1.2%	/	/	/
35. CN1C(=O)c2ccccc2Sc2ccc(NC(=O)NCc3ccc(Cl)cc3)cc21
  -10.6%	?	-3.7%	14.6µM*	/	-0.2%
36. CCN(CC)C(=O)[C@@H]1C=C2c3cccc4[nH]cc(c34)C[C@H]2N(C)C1
  /	/	-2.0%	/	/	/
37. N#CC(C#N)=NNc1ccc(-n2ccc(C(F)(F)F)n2)cc1
  ?	?	1.4%	16.4µM*	-1.9%	-0.1%
